In US9849116B2 (KNOPP BIOSCIENCES LLC, priority 2008, dated 2017):

Assay: Phase I ascending single-dose safety and pharmacokinetic study
Format: in vivo
Conditions: human, plasma; single 150 mg oral dose, fed; read-out: t½ (mean ± SD) (converted)

CCCN[C@@H]1CCc2nc(N)sc2C1 [(R)-pramipexole, (6R)-4,5,6,7-tetrahydro-N6-propyl-2,6-benzothiazole-diamine]
half-life: 6.28 ± 1.48 h
